Assays:
[1] = test system: B. napus wild type line SR002201 (NCIMB 41813); test: ALS-inhibitor herbicide injury on B. napus, greenhouse spray trial, visual scoring; format: in vivo; conditions: Brassica napus, 336 h, read-out: Herbicide injury on B. napus SR002201, 15 g a.i./ha, spray at BBCH 12-13 with Mero 1 l/ha, visual scoring 14 days after application, 0%=no damage, 100%=all plants dead
[2] = test system: non-mutagenized FM101 tissue; conditions: 10^−4 M in selective medium

`COc1cc(OC)nc(NC(=O)[N-]S(=O)(=O)c2ncccc2C2=NOCCO2)n1.[Na+]` [Compound of formula (I)] was tested, and the pest or weed control at 15 g/ha [1] was > 90% and the “growth of non-mutagenized FM101 tissue on selective medium” value [2] was “prevented the growth”.

Reference: US9572315B2, “ALS inhibitor herbicide tolerant B. napus mutants” (BAYER INTELLECTUAL PROPERTY GMBH, priority 2011, dated 2017)
